Assay results as given in paper PMC4933657, “Ultrastructure of the liver microcirculation influences hepatic and systemic insulin activity and provides a mechanism for age‐related insulin resistance” (Aging Cell, 2016).

Columns and labels:
[1] = old vs young C57Bl6 mice, i.v. 14C-insulin
[2] = Multiple indicator dilution (MID) in perfused liver, 14C-insulin and 3H-sucrose

Substance: insulin
- insulin uptake in the fat and the muscle in old mice [1]: unchanged
- reduction of insulin uptake by the liver in old mice ([1]; n = 10 and 10, P < 0.05): about 30%
- reduction in the fractional volume of distribution of insulin with age ([2]; n = 9 young and 10 old F344 rats, P = 0.01): 20%
- volume of distribution of insulin relative to sucrose, young rats ([2]; perfused liver, 3-month-old F344 rats): the same as
- ratio of the volume of distribution of insulin to that of sucrose, middle age ([2]; perfused liver, 12- to 15-month-old F344 rats, relative to young and old): intermediate
- ratio of the volume of distribution of insulin to that of sucrose, old rats ([2]; perfused liver, 24- to 27-month-old F344 rats): about 80%
